# According to patent US20240124551A1 (REPLAY, published 2024):
# B1: KIR2DL2 (receptor, UniProt P43627 22-245, looked up)
# chain: HEGVHRKPSLLAHPGRLVKSEETVILQCWSDVRFEHFLLHREGKFKDTLHLIGEHHDGVSKANFSIGPMMQDLAGTYRCYGSVTHSPYQLSAPSDPLDIVITGLYEKPSLSAQPGPTVLAGESVTLSCSSRSSYDMYHLSREGEAHECRFSAGPKVNGTFQADFPLGPATHGGTYRCFGSFRDSPYEWSNSSDPLLVSVIGNPSNSWPSPTEPSSKTGNPRHLH
# Key:
# [1] = biological target: SYNC4-1; experiment: thermal stability assay (SYPRO orange melt), 5 µM, FIG. 13
# [2] = biological target: SYNC4-1; experiment: thermal stability assay (SYPRO orange melt), 5 µM; SYNC4-1 alone Tm 42.6 and 57.2 ° C.
protein,measurement,setting,value
B1,Tm of the combination (shoulder),[1],57.6 ° C.
same,Tm of the combination (single maximum),[1],58.8 ° C.
same,Tm of the combination (first maximum),[2],54.8 ° C.
same,Tm of the combination (second maximum),[2],57.4 ° C.
